# Reference: patent US10039761B2, “Co-crystals and pharmaceutical compositions comprising the same” (Vertex Pharmaceuticals Incorporated, priority 2013, dated 2018)
# System: DU4475 breast cancer line
# Assay: Doxorubicin or epirubicin combination in DU4475 cells
# Type: cell-based
# Settings: drug in combination with Compound (2)
# Protocol: The cell-based experiments and assays were performed with either molecule but not always with both. Compounds (1) and (2) were generally very similar in those assays and experiments. Analysis of the combination experiments was performed using two methods: the Bliss Additivity model and the Mixtures Blend method to determine the degree of synergy, additivity, or antagonism. In the Bliss method, a matrix of Bliss scores was generated for each cell line and treatment, and a sum of the Bliss values over the range of combination concentrations tested was calculated. […] Larger average Bliss values indicate greater confidence in reporting synergy, and smaller scores indicate greater confidence in reporting antagonism. In the Mixtures Blend method combinants were added in a range of optimal ratios using design of experiment (DOE) software (DX-8 from STAT-EASE); the cells were irradiated with 2 Gy as required. Synergy was determined using statistical analysis of the data (ANOVA) to indicate linear (additivity) or statistically significant (p<0.1) non-linear (antagonism or synergy) mixes of the combinants.
# Combinations of Compound (2) and doxorubicin or epirubicin (DNA intercalator) were tested against breast cancer cell lines (Tables 17 and 18), with a comparison between wild-type and mutant lines being a focus of the study. […]
compound,measurement,value
"COc1cccc2c1C(=O)c1c(O)c3c(c(O)c1C2=O)C[C@@](O)(C(=O)CO)C[C@@H]3O[C@H]1C[C@H](N)[C@H](O)[C@H](C)O1 [Doxorubicin, reference compound]",Average Bliss score,31.9
